# Test system: Aβ42 secretion
# Experiment: Non-selective and selective COX-inhibitors tested for effect on Aβ42 levels in cell cultures (Table 1 summary)
# Type: cell-based
# Conditions: effect up to the highest conc. tested listed per drug in Table 1
smiles,measurement,value
Cc1cnc(NC(=O)C2=C(O)c3ccccc3S(=O)(=O)N2C)s1 [Meloxicam],Aβ42/Aβ40 ratio,no effect

# From patent US20060004086A1, “Method of reducing Abeta42 and treating diseases” (Mayo Foundation for Medical Education and Research, priority 2000, published 2006)
